## Ab-95 light chain CDR variants: yeast mating affinities

Target: peptide PDVDLGDISGINAS, taken from heptad repeat 2 (HR2) of SARS-CoV-2 spike.

Parent scFv Ab-95: VH joined to VL by the linker GGGGSGGGGSGGGGS. Changes lie in the light chain CDRs alone.
VH: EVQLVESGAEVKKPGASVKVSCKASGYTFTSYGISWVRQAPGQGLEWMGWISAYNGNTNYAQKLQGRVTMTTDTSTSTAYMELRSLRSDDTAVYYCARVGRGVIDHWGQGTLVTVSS
VL: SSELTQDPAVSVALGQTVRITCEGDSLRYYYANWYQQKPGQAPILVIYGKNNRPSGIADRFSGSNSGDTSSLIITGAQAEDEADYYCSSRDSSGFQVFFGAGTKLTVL

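Phage display of a naive human antibody library on the peptide gave the parent. In library AAYL52, one, two or three CDR residues were substituted; doubles and triples were drawn at random. In AlphaSeq, yeast of one mating type display the scFv and yeast of the other type display the target. Binding brings cells together so that they mate, and sequencing counts the barcode pairs among the diploids. Read counts were normalised to the haploid input and turned into Kd by a linear fit to BCL2-family pairs of known affinity, for each replicate. Each pool was mated in three replicate cultures.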

Substitutions are numbered in sequence along the VL above, starting at 1 (not Kabat). The read-out is the apparent dissociation constant on a log10 scale (nM): the lower, the stronger. Replicates are averaged; those with no signal do not enter the mean. Where no diploid with the target was found in that replicate, the entry reads "ND": below detection, most likely a poor binder, though not proof of it. As a blank, each scFv also met three strains without target: over library AAYL52, 28% of these pairings were detected, typically at 3.91 and seldom below 2.90. Also given: how often the same scFv was detected with the empty control strains, with their mean in brackets.

changes,log10 Kd (nM) by replicate,"mean, log10 nM",control signals
Y30E Y31E K50R,2.07 2.01 1.53,1.87,5 of 9 (4.55)
Y29T S55I G94N,1.83 1.92 1.51,1.75,2 of 9 (3.42)
A32G N33V F95C,ND 4.68 ND,4.68,5 of 9 (3.68)
Y29D N52E S55Y,1.58 1.60 1.07,1.42,5 of 9 (4.44)
L27Y G94L V97S,4.53 ND ND,4.53,0 of 9
R28I K50T S55D,2.88 2.82 3.15,2.95,2 of 9 (3.57)
G49E N51L Q96G,4.17 4.24 ND,4.21,6 of 9 (3.89)
K50C F95E,2.83 4.39 2.57,3.26,4 of 9 (4.05)
Y31L N51W,ND 4.00 ND,4.00,1 of 9 (4.46)
N33E F95V F98M,5.03 ND ND,5.03,2 of 9 (3.29)
V97M F98T,4.25 4.81 ND,4.53,4 of 9 (4.08)
N51A R90W D91F,2.88 ND ND,2.88,4 of 9 (3.37)
Y29E G49V V97A,3.22 ND ND,3.22,3 of 9 (3.93)
G24T R28S D91P,ND 3.54 ND,3.54,4 of 9 (4.22)
Y31H S89T Q96W,1.90 2.60 1.87,2.12,1 of 9 (3.04)
G49M K50T P54W,4.91 5.17 ND,5.04,2 of 9 (3.31)
Y29T S88V Q96M,2.58 2.23 4.13,2.98,5 of 9 (4.00)
L27T Y29A Q96S,ND 4.19 ND,4.19,2 of 9 (3.64)
Y30W N52P V97A,2.56 2.43 2.53,2.50,4 of 9 (3.93)
R28P N52D S93V,ND ND ND,ND,1 of 9 (2.62)
P54S G94Y,4.06 3.30 3.33,3.56,4 of 9 (4.02)
L27S G49W S93V,3.58 ND 3.71,3.64,4 of 9 (3.66)
R53D S88Q,4.39 4.58 ND,4.48,2 of 9 (4.55)
D25H A32M S88P,ND ND 3.65,3.65,4 of 9 (4.72)
S26C Y30Q D91M,ND ND 4.42,4.42,0 of 9
S26N Y31C S92W,2.53 3.57 3.11,3.07,2 of 9 (3.32)
S89V,2.22 2.03 1.98,2.08,4 of 9 (4.85)
Y29R S55K S88R,3.08 3.63 2.85,3.18,3 of 9 (3.50)
S88L S89V F98H,2.11 2.42 2.06,2.20,4 of 9 (3.61)
R28H Y31I R53T,3.83 4.00 ND,3.91,2 of 9 (3.35)
S26M A32Y S93F,4.34 5.88 ND,5.11,3 of 9 (3.92)
Y29P Y30C R53Q,3.95 5.57 4.66,4.73,4 of 9 (3.58)
E23M Y31H S89C,1.58 1.44 0.91,1.31,2 of 9 (3.80)
P54R S55T F98K,ND 3.46 4.80,4.13,4 of 9 (4.43)
E23V L27H F98M,4.21 4.86 ND,4.53,1 of 9 (4.12)
A32I D91A F98T,ND ND 4.59,4.59,4 of 9 (4.23)
E23D N52H S89N,3.64 3.72 ND,3.68,2 of 9 (3.92)
Y29I P54K S92F,ND ND ND,ND,1 of 9 (4.84)
E23N S88V G94Y,3.28 3.45 2.65,3.12,3 of 9 (3.20)
L27T N51M F95R,ND 3.25 3.76,3.50,4 of 9 (4.48)
L27S R28P N33I,ND 3.61 ND,3.61,0 of 9
N33P S92L S93F,ND 4.86 ND,4.86,1 of 9 (2.79)
Y29A S92F,ND ND ND,ND,4 of 9 (3.49)
S93L F98Q,5.59 4.47 3.54,4.53,2 of 9 (3.69)
R28W Y29S N33K,ND ND 4.19,4.19,2 of 9 (4.85)
S55W Q96S F98W,2.39 2.81 2.46,2.55,3 of 9 (4.07)
N52D S55Y S89V,2.30 2.32 1.84,2.15,3 of 9 (4.72)
S26C S55W S93K,4.18 ND ND,4.18,4 of 9 (4.55)
Y29P N52R V97W,ND ND 3.95,3.95,1 of 9 (2.73)
N51Y S55H S89H,4.04 ND ND,4.04,3 of 9 (3.66)

Excerpt, the final 8 entries:

{"changes": "Y29A S92F", "log10 Kd (nM) by replicate": "ND ND ND", "mean, log10 nM": "ND", "control signals": "4 of 9 (3.49)"}
{"changes": "S93L F98Q", "log10 Kd (nM) by replicate": "5.59 4.47 3.54", "mean, log10 nM": "4.53", "control signals": "2 of 9 (3.69)"}
{"changes": "R28W Y29S N33K", "log10 Kd (nM) by replicate": "ND ND 4.19", "mean, log10 nM": "4.19", "control signals": "2 of 9 (4.85)"}
{"changes": "S55W Q96S F98W", "log10 Kd (nM) by replicate": "2.39 2.81 2.46", "mean, log10 nM": "2.55", "control signals": "3 of 9 (4.07)"}
{"changes": "N52D S55Y S89V", "log10 Kd (nM) by replicate": "2.30 2.32 1.84", "mean, log10 nM": "2.15", "control signals": "3 of 9 (4.72)"}
{"changes": "S26C S55W S93K", "log10 Kd (nM) by replicate": "4.18 ND ND", "mean, log10 nM": "4.18", "control signals": "4 of 9 (4.55)"}
{"changes": "Y29P N52R V97W", "log10 Kd (nM) by replicate": "ND ND 3.95", "mean, log10 nM": "3.95", "control signals": "1 of 9 (2.73)"}
{"changes": "N51Y S55H S89H", "log10 Kd (nM) by replicate": "4.04 ND ND", "mean, log10 nM": "4.04", "control signals": "3 of 9 (3.66)"}

Source: Engelhart et al. 2022 (doi:10.1038/s41597-022-01779-4), MIT Lincoln Laboratory and A-Alpha Bio; data file from the FLAb repository.